# Earlier results in paper PMC12836451, “Cyclic Peptide–Polymer Conjugate Nanotubes for Delivery of SN‐38 in Treatment of Colorectal Cancer Model” (Advanced Healthcare Materials, 2025).
# Structures can show the parent of a compound that is named as a salt.
# Details: typical conversion of irinotecan; cited from earlier work
# From the text: Despite significant scientific advances in recent decades, cancer remains one of the most formidable challenges for modern medicine. The rising rates of colorectal cancer (CRC) diagnoses, particularly amongst younger people, exemplify the new complexities faced. Despite efforts to promote early detection and fast onset of treatment, the prognosis for CRC remains grim, ranking as one of the deadliest malignancies worldwide. […]
structure (smiles),measurement,value
"CCc1c2c(nc3ccc(OC(=O)N4CCC(N5CCCCC5)CC4)cc13)-c1cc3c(c(=O)n1C2)COC(=O)[C@]3(O)CC [Irinotecan, irinotecan hydrochloride]",rate of enzymatic prodrug metabolism,< 10%
